High-throughput results deposited in PubChem BioAssay by Broad Institute.
Most compounds without a hit are left out; they make up all but 1.3% or so of the library.
GSIS activator – GLuc luminescence reporter in INS-1E cells, primary screen for activators of glucose-dependent secretion of insulin; activation, % at 16.6 µM; INS-1E GLuc reporter insulin secretion, 2-3 h; 370,000 compounds, 0.61% hits;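 active means lowest replicate activation of at least 40%, so every replicate reaches that level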;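 further: 0% = median of neutral control wells and 100% = median of IBMX positive control wells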
UUG fidelity – modulators of yeast start codon fidelity, primary screen, whole organism, S. cerevisiae, single point, plate reader | AID 602363, 2012 | S. cerevisiae UUG-firefly luciferase reporter, luminescence/redox ratio | activity score, % at 18.7 µM | hit rate 0.13% among 350,000;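 active = replicate mean at a twofold rise or more, about +100% in these data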;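 also: firefly luciferase made from a UUG start codon reports start codon fidelity; reporter light over untreated wells divided by growth signal over untreated wells; some hits fall short of that in this replicate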
SR-BI DiI inh – inhibitors of SR-BI mediated HDL lipid uptake, primary screen, ldlA[mSR-BI] cells, fluorescence, single point. ldlA[mSR-BI] CHO cells, DiI-HDL uptake fluorescence, 3 h. 320,000 compounds, 0.96% hits. AID 488896, 2010. inhibition, % at 12.5 µM. Scavenger receptor class B member 1 (Mus musculus), Q61009;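 active means mean replicate inhibition of at least 70% and a set share of replicates each scoring 70 or more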;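 further: 0% = median of neutral control wells and 100% = median of positive control wells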
SR-BI DiI-HDL act – activators of SR-BI mediated DiI-HDL uptake, primary screen, ldlA[mSR-BI] CHO cells, DiI fluorescence | 3 h; 100 = double the neutral-control signal | activation, % at 12.5 µM | 320,000 compounds, 0.096% hits | AID 504775, 2011;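 active means mean replicate activation of at least 60% and every replicate at or above 60%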;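 further: 0% = median plate neutral-control signal and 100% = twice that signal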
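system = CHO ldlA[mSR-BI] cells, LDL receptor-null, SR-BI overexpressing | medium = Ham's F12 with 0.5% BSA, HEPES 25 mM, pH 7.4 | probe or stimulus = DiI-HDL 10 µg/mL | compound dosing = single-point compound dose | incubation = compound exposure 3 h, 37 °C | technique = DiI fluorescence, bottom read | read-out = cell-associated DiI fluorescence as measure of HDL uptake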
Starred values were filed as active, the others as inactive.

For COC(=O)C1=C(C)N(Cc2ccccc2)C(=NCc2ccccc2)N[C@H]1c1cccc(C(F)(F)F)c1 the results were UUG fidelity 7, SR-BI DiI inh -15 and SR-BI DiI-HDL act 15.
`COC(=O)C1=C(C)N(Cc2cccc(C(F)(F)F)c2)C(=NCc2ccc(C(F)(F)F)cc2)NC1c1ccc(F)cc1` (stereo unspecified) gave GSIS activator 875*.
For COC(=O)C1=C(C)N(Cc2ccc(C(F)(F)F)cc2)C(=NCc2ccccc2)NC1c1cccc(F)c1 (stereo unspecified) the results were GSIS activator 671*.
COC(=O)C1=C(C)N(Cc2cccc(C(F)(F)F)c2)C(=NCc2ccc3c(c2)OCO3)NC1c1ccc(F)cc1 (stereo unspecified) was read as GSIS activator 32.
`COC(=O)C1=C(C)N(Cc2cccc(C(F)(F)F)c2)C(=NCc2ccc3c(c2)OCO3)NC1c1ccccc1C(F)(F)F` (stereo unspecified) gave GSIS activator -18.
Screening COC(=O)C1=C(C)N(Cc2cccc(C(F)(F)F)c2)C(=NCc2ccc3c(c2)OCO3)NC1CCc1ccccc1 (stereo unspecified) returned GSIS activator 114*.
CCC(=O)Nc1ccc2c(c1)C(=O)N(C)C[C@H](OC)[C@H](C)CN(C(=O)CC1CC1)[C@@H](C)CO2 was read as GSIS activator 3 and UUG fidelity -16.
For O=C(NCc1ccc(F)cc1)[C@H]1[C@H](CO)[C@H]2Cn3c(cccc3=O)[C@@H]1N2CC1CCCC1 the results were GSIS activator -1.
For C/C=C/c1ccc([C@H]2[C@H](CO)N(C(C)=O)C23CN(C(=O)c2ccncc2)C3)cc1 the results were GSIS activator 10.
For COC(=O)C1=C(C)N(Cc2ccc(C(F)(F)F)cc2)C(=NCc2cccc(C(F)(F)F)c2)NC1c1ccccc1C(F)(F)F (stereo unspecified) the results were GSIS activator 35.
`COC(=O)C1=C(C)N(Cc2cccc(C(F)(F)F)c2)C(=NCc2cc(OC)c(OC)c(OC)c2)NC1c1cccc(Cl)c1` (stereo unspecified) gave GSIS activator 25.
For COC(=O)C1=C(C)N(Cc2cccc(C(F)(F)F)c2)C(=NCc2ccc(OC)cc2)NC1c1cccc(Cl)c1 (stereo unspecified) the results were GSIS activator active.
Screening COC(=O)C1=C(C)N(Cc2cccc(C(F)(F)F)c2)C(=NCc2ccc(C(F)(F)F)cc2)NC1c1ccc(C(F)(F)F)cc1 (stereo unspecified) returned GSIS activator 815*.
For C[C@@H]1CCCCO[C@@H](CN(C)S(C)(=O)=O)[C@H](C)CN([C@@H](C)CO)C(=O)c2cc(NS(=O)(=O)c3ccc(Cl)cc3)ccc2O1 the results were GSIS activator -3 and UUG fidelity 16.
Screening COCCn1c(=NC(=O)/C=C/c2ccccc2)sc2cc(NC(C)=O)ccc21 returned GSIS activator 1, UUG fidelity 2, SR-BI DiI inh 88* and SR-BI DiI-HDL act -88.
O=[N+]([O-])c1ccc(O)c(/C=N/Nc2ccc(Cl)nn2)c1 was read as GSIS activator 34, UUG fidelity -26, SR-BI DiI inh 106* and SR-BI DiI-HDL act -106.
`O=[N+]([O-])c1ccc(O)c(/C=N/NC2=NS(=O)(=O)c3ccccc32)c1` gave GSIS activator 3, SR-BI DiI inh 88* and SR-BI DiI-HDL act -88.
For COc1ccc(S(=O)(=O)Nc2ccc3c(c2)CC(=O)N([C@H](C)CO)C[C@H](C)[C@@H](CN(C)CC2CCCCC2)O3)cc1 the results were GSIS activator -4 and UUG fidelity 7.
CN1C(=O)c2cc(NC(=O)C3CC3)ccc2OC[C@@H]2O[C@H](CC(=O)NCCN3CCCC3)CC[C@@H]21 was read as GSIS activator 9 and UUG fidelity 2.
Screening CN(C)C(=O)[C@]1(CCS(=O)(=O)c2ccccc2)N=C(c2ccc(OCCCO)cc2)O[C@@H]1c1ccccc1 returned UUG fidelity -11.
For CCOc1ccc(NC(=O)CN(C)C(=O)CCCOc2ccc(Br)cc2)cc1OCC the results were GSIS activator -40, SR-BI DiI inh 83* and SR-BI DiI-HDL act -83.
`CCOc1ccc2oc(C(=O)N(C)CCc3ccc(OC)c(OC)c3)c(C)c2c1` gave GSIS activator 50*, UUG fidelity -4, SR-BI DiI inh 35 and SR-BI DiI-HDL act -35.
`CCOc1ccc(NC(=O)CN(C)C(=O)c2cccnc2Sc2ccc(Cl)cc2)cc1OCC` gave GSIS activator -14, UUG fidelity 4, SR-BI DiI inh -82 and SR-BI DiI-HDL act 82*.
`COc1ccc2oc(C(=O)N(C)Cc3ccc4c(c3)OCCO4)c(C)c2c1` gave GSIS activator -4, UUG fidelity 22, SR-BI DiI inh -5 and SR-BI DiI-HDL act 5.

Molecules from the list above with four or more nitrogen atoms:
O=[N+]([O-])c1ccc(O)c(/C=N/Nc2ccc(Cl)nn2)c1 was read as GSIS activator 34, UUG fidelity -26, SR-BI DiI inh 106* and SR-BI DiI-HDL act -106.
`O=[N+]([O-])c1ccc(O)c(/C=N/NC2=NS(=O)(=O)c3ccccc32)c1` gave GSIS activator 3, SR-BI DiI inh 88* and SR-BI DiI-HDL act -88.
CN1C(=O)c2cc(NC(=O)C3CC3)ccc2OC[C@@H]2O[C@H](CC(=O)NCCN3CCCC3)CC[C@@H]21 was read as GSIS activator 9 and UUG fidelity 2.

Further results:
For CCOc1ccc2oc(C(=O)N(C)CC(=O)Nc3ccc(OCC)c(OCC)c3)c(C)c2c1 the results were GSIS activator -7, UUG fidelity -6, SR-BI DiI inh 82* and SR-BI DiI-HDL act -82.
`C[C@H](CO)N1C[C@H](C)[C@H](CN(C)C(=O)Cc2ccccc2)OCCCC[C@H](C)Oc2ccc(NC(=O)Nc3cccc4ccccc34)cc2C1=O` gave GSIS activator 14 and UUG fidelity -6.
Cc1noc(C)c1NC(=O)N(C)C[C@@H]1Oc2ccc(NC(=O)CCN3CCOCC3)cc2CC(=O)N([C@@H](C)CO)C[C@@H]1C was read as GSIS activator -4 and UUG fidelity 11.
For COc1ccc(C(C)=O)cc1OCc1ccccc1 the results were GSIS activator 23 and UUG fidelity -4.
COc1cc(C(=O)Nc2ccc(NC(C)=O)cc2)ccc1OCc1ccccc1 was read as GSIS activator 6, SR-BI DiI inh 78* and SR-BI DiI-HDL act -78.
Screening COc1cc(C(=O)O)ccc1OCc1ccccc1 returned GSIS activator 55*.
For COc1ccccc1OCc1ccc(C(=O)Nc2ccccc2)cc1 the results were GSIS activator 14, UUG fidelity 7, SR-BI DiI inh 39 and SR-BI DiI-HDL act -39.
Screening C[C@@H]1CCCCO[C@H](CN(C)C(=O)Nc2cccc3ccccc23)[C@H](C)CN([C@@H](C)CO)C(=O)c2cc(NC(=O)Nc3ccc(C(F)(F)F)cc3)ccc2O1 returned GSIS activator 9 and UUG fidelity -16.
For COc1ccccc1NC(=O)c1c(Nc2ccccc2F)sc(C(=O)Nc2cccc(Cl)c2)c1N the results were GSIS activator -19, UUG fidelity -12, SR-BI DiI inh 75* and SR-BI DiI-HDL act -75.
`NNC(=O)c1sc2cc(C(F)(F)F)cnc2c1-c1cccs1` gave GSIS activator 15, UUG fidelity -11, SR-BI DiI inh 61 and SR-BI DiI-HDL act -61.
